The target of the experiment is human A1 adenosine receptor (Homo sapiens, UniProt P30542). Kind of experiment: fus1-LacZ β-galactosidase assay, yeast expressing human A1 adenosine receptor. The format is cell-based. More on the design: yeast alpha-factor (Mfα1) prepro leader (N, cleaved yes); expressed in transfected cells; host or cells: Saccharomyces cerevisiae (strain CY12660 or related strains carrying plasmid p5095). The settings on record: NECA concentration of 10^−8 M.

By UniProt entry, the sequences of proteins in these tests, tags left out.
UniProt P30542, whole entry: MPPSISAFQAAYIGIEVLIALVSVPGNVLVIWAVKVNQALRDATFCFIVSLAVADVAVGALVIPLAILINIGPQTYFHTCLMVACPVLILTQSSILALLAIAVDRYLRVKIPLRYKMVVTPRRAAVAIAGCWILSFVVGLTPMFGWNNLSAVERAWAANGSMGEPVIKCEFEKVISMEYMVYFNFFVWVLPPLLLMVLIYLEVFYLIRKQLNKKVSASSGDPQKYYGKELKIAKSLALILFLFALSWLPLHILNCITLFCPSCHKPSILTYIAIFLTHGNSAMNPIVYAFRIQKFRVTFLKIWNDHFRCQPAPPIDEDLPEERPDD

On to `CCNC(=O)[C@H]1O[C@@H](n2cnc3c(N)ncnc32)[C@H](O)[C@@H]1O` [NECA, 5′-N-ethylcarboxamidoadenosine], for which the “stimulation of β-galactosidase activity” value is reported as “approximately 2 fold”.

Source of the values: patent US20040082598A1, “Compounds specific to adenosine A, receptors and uses thereof” (OSI Pharmaceuticals, Inc., priority 2000, published 2004).
